Laboratory results: patent publication US20070032529A1, “Pyrazole compounds and their use as antidiabetes agents” (Japan Tobacco Inc., priority 2005, published 2007)

Chains of the proteins cited; added tags and fusions are not shown.
UniProt P06737, whole entry: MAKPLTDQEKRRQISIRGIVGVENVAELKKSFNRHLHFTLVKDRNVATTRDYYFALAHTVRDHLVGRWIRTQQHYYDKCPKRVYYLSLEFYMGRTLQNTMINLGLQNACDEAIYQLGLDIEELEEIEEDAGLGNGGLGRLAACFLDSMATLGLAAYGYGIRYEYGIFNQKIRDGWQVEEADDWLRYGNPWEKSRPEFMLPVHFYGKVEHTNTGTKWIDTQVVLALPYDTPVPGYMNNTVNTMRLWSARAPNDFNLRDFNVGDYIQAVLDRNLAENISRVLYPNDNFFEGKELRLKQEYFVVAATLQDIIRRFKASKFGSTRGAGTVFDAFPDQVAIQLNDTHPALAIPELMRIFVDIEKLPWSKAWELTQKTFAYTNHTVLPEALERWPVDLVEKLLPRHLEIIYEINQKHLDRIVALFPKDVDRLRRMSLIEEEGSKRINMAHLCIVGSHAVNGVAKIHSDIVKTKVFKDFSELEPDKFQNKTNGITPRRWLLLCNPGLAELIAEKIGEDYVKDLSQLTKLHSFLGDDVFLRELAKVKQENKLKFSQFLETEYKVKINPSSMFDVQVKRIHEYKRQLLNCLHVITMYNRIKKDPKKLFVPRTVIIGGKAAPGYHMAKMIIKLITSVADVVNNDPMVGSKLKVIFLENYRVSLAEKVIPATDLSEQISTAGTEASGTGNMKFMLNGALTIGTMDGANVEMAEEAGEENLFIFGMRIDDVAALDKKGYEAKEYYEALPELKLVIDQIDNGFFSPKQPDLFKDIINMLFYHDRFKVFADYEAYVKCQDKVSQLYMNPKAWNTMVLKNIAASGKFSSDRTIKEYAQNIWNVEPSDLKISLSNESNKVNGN

Biological target: recombinant human liver glycogen phosphorylase (Homo sapiens, UniProt P06737)
Assay: Measuring liver glycogen phosphorylase activity (forward reaction system, NADPH absorbance at 340 nm)
Conditions: class symbol, tested form: Na salt
Protocol: [Pharmacological Test] 1. Exemplary Test (1) Method for Measuring Liver Glycogen Phosphorylase Activity
The measurement of glycogen phosphorylase activity was carried out by a method using the forward reaction system.
The measurement of glycogen phosphorylase activity using the forward reaction system was carried out as follows. Glucose-1-phosphate prepared from glycogen by glycogen phosphorylase was converted into glucono-δ-lactone 6-phosphate through transphosphorylation and dehydrogenation using phosphoglucomutase and glucose-6-phosphate dehydrogenase (G6PDH). NADPH generated from NADP during the dehydrogenation by G6PDH was detected. […]
The enzymatic reaction was begun by adding 20 μL of the recombinant human liver glycogen phosphorylase solution and 20 μL of the mixture of phosphoglucomutase and G6PDH to the mixture of 20 μL of the glucose solution, 20 μL of the substrate, 100 μL of the buffer solution for reaction and 20 μL of the test compound solution. […] The absorbance at 340 nm was measured immediately after the reaction started. The absorbance at 340 nm was measured again after reacting at room temperature for 75 minutes. The enzymatic activity is a value obtained by subtracting the blank variation in absorbance over 75 minutes from the variation in absorbance over 75 minutes. […]

IC50: < 100 nM
Structure (SMILES): CN(C(=O)c1cc(NC(=O)c2cc(F)c(F)cc2Cl)[nH]n1)c1ccc(C(=O)NS(C)(=O)=O)cc1 [Example 6-5]
